Key:
[1] = target: T1, Human GPR40 (Homo sapiens, UniProt O14842); assay: FLIPR assay, agonist-induced calcium mobilization; conditions: read-out: Human GPR40, FLIPR, EC50, GPR40/CHO NFAT BLA cells
Procedure: (§1) Human and mouse GPR40 stable cell-lines were generated in CHO cells stably expressing NFAT BLA (Beta-lactamase). A human GPR40 stable cell-line was generated in HER cells stably expressing the aequorin expressing reporter. The expression plasmids were transfected using lipofectamine (Life Technologies) following manufacturer's instructions. Stable cell-lines were generated following drug selection.
FLIPR (Fluorimetric Imaging Plate Reader, Molecular Devices) assays were performed to measure agonist-induced calcium mobilization of the stable clones. For the FLIPR assay, one day before assay, GPR40/CHO NFAT BLA cells were seeded into black-wall-clear-bottom 384-well plates (Costar) at 1.4×10e4 cells/20 μL medium/well. The cells were incubated with 20 μl/well of the assay buffer (HMS, 0.1% BSA, 20 mM HEPES, 2.5 mM probenecid, pH 7.4) containing 8 μM fluo-4, AM, 0.08% pluronic acid at room temperature for 100 minutes. Fluorescence output was measured using FLIPR. Compounds were dissolved in DMSO and diluted to desired concentrations with assay buffer. 13.3 μL/well of compound solution was added.

The chains behind the UniProt entries cited, without tags or fusion partners.
UniProt O14842, whole entry: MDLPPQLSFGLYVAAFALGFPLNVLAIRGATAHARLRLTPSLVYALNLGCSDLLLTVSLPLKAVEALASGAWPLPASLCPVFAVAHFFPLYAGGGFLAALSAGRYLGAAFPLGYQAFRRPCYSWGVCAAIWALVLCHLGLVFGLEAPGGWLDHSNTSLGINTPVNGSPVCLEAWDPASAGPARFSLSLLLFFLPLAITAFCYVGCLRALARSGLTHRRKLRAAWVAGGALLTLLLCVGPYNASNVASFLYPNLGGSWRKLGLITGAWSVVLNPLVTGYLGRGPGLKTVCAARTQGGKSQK

[2] = target: T1, Human GPR40; assay: Inositol Phosphate Turnover (IP1) Assay; conditions: read-out: Human GPR40 IP1, EC50; HEK cells stably expressing human GPR40, CisBio IP-One kit
Procedure: as §1
The assay is performed in 384-well format. HEK cells stably expressing human GPR40 are plated at 15,000 cells per well in growth medium (DMEM/10% fetal calf serum). Cell plates are then incubated 16 hours at 37 degrees in a 5% CO2 incubator.
Measurement of Inositol Phosphate Turnover (IP1) is performed using the CisBio IP-One kit (Part number 62IPAPEB). After the 16 hour incubation, the cells are washed with HEPES buffer and 10 ul of stimulation buffer (prepared as described in the kit) is added to each well. In a separate plate, compounds are diluted in DMSO (400-fold over the final concentration in the assay well) and 25 nl is acoustically transferred to the appropriate well in the assay cell plate. The plates are then incubated for 60 minutes at 37 degrees. […] The plates are then read in a Perkin Elmer EnVision or equivalent reader able to measure FRET. […]

Structure (SMILES): CC1(C)CC(c2ccccc2C(F)(F)F)c2cc(COc3ccc4c(c3)C[C@H]3[C@H](C(=O)O)[C@@H]43)ccc21 (some centres unmarked)
- EC50 [1]: 0.0194 µM
- EC50 [2]: 0.0704 µM
